The conditions of this series: pH 7.4.
In the case of “Poly[(isoleucineethylester)(aminomethoxy polyethyleneglycol550)(cystineethylester)phosphazene] [Example 14]”, the “Max. Gelling Temp.” value was 32 °C.
On to “Poly[(isoleucineethylester)(aminomethoxy polyethyleneglycol550)(acrylate)phosphazene] [Example 9]”, for which the “Max. Gelling Temp.” value amounted to 38 °C.
For the substance “Poly[(isoleucineethylester)(aminomethoxy polyethyleneglycol550)(hydroxyethylmethacrylate)phosphazene] [Example 7]”, the “Max. Gelling Temp.” value came to 37 °C.
As for “Poly[(isoleueineethylester)(aminomethoxy polyethyleneglycol550)(glycylglyeine)(glyeylglycylcysteamine)phosphazene] [Example 23]”, the “Max. Gelling Temp.” value worked out at 29 °C.
As for “Poly[(isoleucineethylester)(aminomethoxy polyethyleneglycol550)(ethyl-2-(O-glycyl)lactate)(cystine ethyl ester)phosphazene] [Example 17]”, the “Max. Gelling Temp.” value is 38 °C.
For “Poly[(isoleucineethylester)(aminomethoxy polyethyleneglycol550)(aminoethylmethacrylate)phosphazene] [Example 4]”, the “Max. Gelling Temp.” value amounted to 28 °C.
As for “Poly[(isoleucineethylester)(aminomethoxy polyethyleneglycol550)(glycylglyeine)(glycylglycyltyramine)phosphazene] [Example 25]”, the figure is 33 °C.
As to “Poly[(isoleucineethylester)(aminomethoxy polyethyleneglycol550)(aminoethylmethacrylate)phosphazene] [Example 5]”, the “Max. Gelling Temp.” value is 39 °C.
As for “Poly[(isoleucineethylester)(aminomethoxy polyethyleneglycol750)(acrylate)phosphazene] [Example 11]”, the figure is 48 °C; as for “Poly[(isoleucineethylester)(aminomethoxy polyethyleneglycol550)(ethyl-2-(O-glycyl)lactate)(glycylcystineethylester) phosphazene] [Example 18]”, 35 °C.
As for “Poly[(isoleucineethylester)(aminomethoxy polyethyleneglycol550)(aminoethylmethacrylate)phosphazene] [Example 2]”, the figure is 33 °C.

The record behind these values is patent US8586020B2, “Poly(organophosphazene) composition for biomaterials” (Korea Institute of Science and Technology, priority 2011, dated 2013).
